Values of other authors, collected in PMC4358770 (Journal of medicinal chemistry, 2010).

By UniProt entry, the sequences of proteins in these tests, tags left out. Residues count along the entry.
UniProt P19111, 20-533: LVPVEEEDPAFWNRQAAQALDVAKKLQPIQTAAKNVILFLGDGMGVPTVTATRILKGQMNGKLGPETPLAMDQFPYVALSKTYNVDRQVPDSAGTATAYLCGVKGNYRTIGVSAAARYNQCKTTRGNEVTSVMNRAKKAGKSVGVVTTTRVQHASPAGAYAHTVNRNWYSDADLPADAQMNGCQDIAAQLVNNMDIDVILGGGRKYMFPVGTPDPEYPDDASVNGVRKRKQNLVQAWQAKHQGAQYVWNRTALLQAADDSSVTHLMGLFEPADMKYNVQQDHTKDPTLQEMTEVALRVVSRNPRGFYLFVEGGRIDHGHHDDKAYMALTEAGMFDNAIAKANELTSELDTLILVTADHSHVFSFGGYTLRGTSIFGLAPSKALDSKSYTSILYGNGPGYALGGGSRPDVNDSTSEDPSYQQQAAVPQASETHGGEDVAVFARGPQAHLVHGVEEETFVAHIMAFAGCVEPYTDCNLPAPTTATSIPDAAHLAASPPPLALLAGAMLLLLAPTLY

Target: calf intestine alkaline phosphatase (Bos taurus, UniProt P19111)
Conditions: cited from earlier work

Substance: 2-MeS-α-borano-ATP (A-isomer) [analogue 4A]
- amount remaining with alkaline phosphatase (after 100 min): only traces
- hydrolysis by alkaline phosphatase (within 12 min at 37 °C): 60%
